This passage reports IC50 results from ChEMBL document CHEMBL1128174, “Enhanced D1 affinity in a series of piperazine ring substituted 1-piperazino-3-arylindans with potential atypical antipsychotic activity” (J Med Chem, 1995).

Chains of the proteins cited; added tags and fusions are not shown. Lines headed by an entry give the natural chain unless they say otherwise; changes in a name come on top.
UniProt P61169, whole entry: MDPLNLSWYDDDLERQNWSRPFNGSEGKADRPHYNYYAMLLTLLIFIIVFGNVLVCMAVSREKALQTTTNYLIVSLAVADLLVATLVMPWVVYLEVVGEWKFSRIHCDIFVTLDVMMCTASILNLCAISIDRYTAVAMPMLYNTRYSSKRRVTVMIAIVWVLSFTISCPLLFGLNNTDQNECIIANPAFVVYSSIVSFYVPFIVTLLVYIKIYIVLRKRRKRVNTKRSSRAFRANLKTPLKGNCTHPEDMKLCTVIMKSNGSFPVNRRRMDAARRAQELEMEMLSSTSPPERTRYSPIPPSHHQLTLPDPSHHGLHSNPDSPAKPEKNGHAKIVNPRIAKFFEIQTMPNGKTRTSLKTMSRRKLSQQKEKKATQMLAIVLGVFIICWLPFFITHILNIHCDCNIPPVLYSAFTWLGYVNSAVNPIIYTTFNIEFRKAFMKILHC
UniProt P15823: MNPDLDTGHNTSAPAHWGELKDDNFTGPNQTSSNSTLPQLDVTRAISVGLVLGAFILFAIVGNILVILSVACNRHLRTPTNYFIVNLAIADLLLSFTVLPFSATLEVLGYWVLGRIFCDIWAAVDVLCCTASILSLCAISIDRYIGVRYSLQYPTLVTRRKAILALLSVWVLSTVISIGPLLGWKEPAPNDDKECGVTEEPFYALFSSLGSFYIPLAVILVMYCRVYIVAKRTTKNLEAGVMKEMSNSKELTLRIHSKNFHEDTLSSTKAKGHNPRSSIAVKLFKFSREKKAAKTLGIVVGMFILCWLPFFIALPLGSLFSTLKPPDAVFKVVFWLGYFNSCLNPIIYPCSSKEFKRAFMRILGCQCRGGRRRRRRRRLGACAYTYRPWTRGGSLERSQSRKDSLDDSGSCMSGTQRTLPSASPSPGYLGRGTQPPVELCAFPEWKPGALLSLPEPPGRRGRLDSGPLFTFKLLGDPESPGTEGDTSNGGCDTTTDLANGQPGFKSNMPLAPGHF
UniProt P23944: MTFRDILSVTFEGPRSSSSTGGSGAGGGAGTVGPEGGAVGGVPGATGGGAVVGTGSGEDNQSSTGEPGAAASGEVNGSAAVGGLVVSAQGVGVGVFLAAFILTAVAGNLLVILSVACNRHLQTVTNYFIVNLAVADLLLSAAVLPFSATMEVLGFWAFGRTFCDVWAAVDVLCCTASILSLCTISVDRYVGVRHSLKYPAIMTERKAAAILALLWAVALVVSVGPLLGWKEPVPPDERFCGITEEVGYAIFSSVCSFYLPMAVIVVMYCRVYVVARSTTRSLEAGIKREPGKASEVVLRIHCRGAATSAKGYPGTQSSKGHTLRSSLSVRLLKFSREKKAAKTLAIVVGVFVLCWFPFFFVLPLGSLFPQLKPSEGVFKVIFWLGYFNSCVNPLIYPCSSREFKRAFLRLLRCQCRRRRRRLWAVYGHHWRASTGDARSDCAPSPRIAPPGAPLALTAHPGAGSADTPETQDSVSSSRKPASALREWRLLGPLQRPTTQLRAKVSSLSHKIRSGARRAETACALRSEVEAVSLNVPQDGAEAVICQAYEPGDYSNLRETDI
UniProt P43140: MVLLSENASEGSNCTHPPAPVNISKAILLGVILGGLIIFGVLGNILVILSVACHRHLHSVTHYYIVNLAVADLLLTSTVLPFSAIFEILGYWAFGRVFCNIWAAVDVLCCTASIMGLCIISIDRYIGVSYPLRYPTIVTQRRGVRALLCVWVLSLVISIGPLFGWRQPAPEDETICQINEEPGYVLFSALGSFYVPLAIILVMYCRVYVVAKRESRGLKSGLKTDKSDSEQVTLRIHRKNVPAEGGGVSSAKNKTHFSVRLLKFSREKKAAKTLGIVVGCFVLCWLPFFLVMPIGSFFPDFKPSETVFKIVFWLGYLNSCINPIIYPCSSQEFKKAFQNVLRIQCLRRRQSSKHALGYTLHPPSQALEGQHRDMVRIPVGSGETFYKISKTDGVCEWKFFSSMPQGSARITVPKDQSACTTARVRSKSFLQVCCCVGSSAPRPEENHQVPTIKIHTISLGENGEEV

Broadly, the IC50 is the concentration needed to halve the response being measured. Read a high IC50 as a need for much substance.

One test addresses D(2) dopamine receptor (Rattus norvegicus, UniProt P61169). Nature of the test: Binding affinity against dopamine receptor D2.
The target of test [1] is Adrenergic receptor alpha-1 (Rattus norvegicus, UniProt P15823+P23944+P43140). Briefly: Binding affinity against Alpha-1 adrenergic receptor, activity is expressed as IC50 values. It counts as protein assay.

Take `CN1CCN(C2CC(c3ccc(F)cc3)c3ccc(Cl)cc32)CC12CCCC2` (single isomer, unassigned; (+)): the IC50 on D(2) dopamine receptor came to 20 nM.

`CC(C)N1CCN(C2CC(c3ccc(F)cc3)c3ccc(Cl)cc32)CC1(C)C` (single isomer, unassigned; (-)) yielded an IC50 at D(2) dopamine receptor of 3.1 nM.

The compound `CN1CCN(C2CC(c3ccc(F)cc3)c3ccc(Cl)cc32)CC1(C)C` (stereo in doubt; 28) showed an IC50 in test [1] of 4.9 nM.

For the compound `CC(C)N1CCN(C2CC(c3ccc(F)cc3)c3ccc(Cl)cc32)CC1(C)C` (stereo in doubt; 29), the IC50 on D(2) dopamine receptor came out at 5 nM.

As for `CN1CCN(C2CC(c3ccc(F)cc3)c3ccc(Cl)cc32)CC12CCCC2` (stereo in doubt; 34), on D(2) dopamine receptor, the IC50 came out at 10 nM.

`CN1CCN(C2CC(c3ccc(F)cc3)c3ccc(Cl)cc32)CC1(C)C` (stereo in doubt; (-)-28) had an IC50 in test [1] of 3.9 nM.

Regarding `CN1CCN(C2CC(c3ccc(F)cc3)c3ccc(Cl)cc32)CC12CCCC2` (stereo in doubt; (-)-34), at D(2) dopamine receptor, the IC50 was 4.5 nM.
